Assay results taken from ChEMBL document CHEMBL2385020, “Evaluation of N-phenyl homopiperazine analogs as potential dopamine D3 receptor selective ligands” (Bioorg Med Chem, 2013).

Species on record: Homo sapiens
Assay: Selectivity ratio of Ki for human dopamine D2L receptor to Ki for human dopamine D3 receptor
How it was run: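 Non-specific binding defined with 20 μM (+)-butaclamol. Ki from at least three experiments. Ratio taken as D2 Ki over D3 Ki.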

Compound | Ratio Ki
COc1ccccc1N1CCCN(CCCCNC(=O)c2ccc(CCO)cc2)CC1 | 11
COc1ccccc1N1CCCN(CCCCNC(=O)c2ccc(SC)cc2)CC1 | 35
COc1ccccc1N1CCCN(CCCCNC(=O)c2cc3ccccc3[nH]2)CC1 | 56
COc1ccccc1N1CCCN(CCCCNC(=O)c2ccc(Br)nc2)CC1 | 8
COc1ccccc1N1CCCN(CCCCNC(=O)c2ccc(F)cc2)CC1 | 11
COc1ccccc1N1CCCN(CCCCNC(=O)c2ccc(Cl)nc2)CC1 | 8
COc1ccccc1N1CCCN(CCCCNC(=O)c2ccc(Cl)cc2)CC1 | 30
